The subject of the data set is MDCK-pHaMDR cell monolayer. Put plainly: bidirectional transport across the MDCK-pHaMDR cell monolayer (in vitro BBB model). The settings on record: for primary transport mechanism: time-dependency (30–180 min, 100 µM) and concentration-dependency (25–100 µM, 90 min) experiments.

Structures are written as SMILES.

Turning to `C/C=C/c1cc(OC)c2c(c1)[C@@H](C)[C@H](c1ccc(O)c(OC)c1)O2` (racemic) [Compound 1, Dehydrodiisoeugenol], the primary transport mechanism entry is given as “passive diffusion”. Besides, the “permeability (in words)” value (classed by Papp against caffeine and atenolol) is given as “moderate”.

In the case of `COc1cc([C@H]2O[C@@H](c3ccc(O)c(OC)c3)[C@@H](C)[C@@H]2C)ccc1O` [Compound 8, verrucosin], the primary transport mechanism result is reported as “passive diffusion”.

For the origin of these results see PMC6274353, “The Blood-Brain Barrier Permeability of Lignans and Malabaricones from the Seeds of Myristica fragrans in the MDCK-pHaMDR Cell Monolayer Model” (Molecules, 2016).
